We go through one molecule from the OPERA property sets (Mansouri et al. 2018).

One may read the logP as a log measure of how a compound divides between an organic and an aqueous phase. The low end stands for lower lipophilicity, the high end for higher lipophilicity. `CC(C)N1CCC(N(C(=O)Cc2ccccc2)c2ccc(Cl)cc2)CC1`: the logP was 4.85.
